The numbers were not newly measured in patent US20210106574A1, “Methods of Treating Cancer” (Tesaro, Inc., priority 2017, published 2021), which cites them from elsewhere.

Data set [1] relates to cancer cell lines silenced for or carrying mutations of BRCA-1 or BRCA-2; Ewing's sarcoma, ALL, NSCLC, SCLC and ATM-inactivated tumor cell lines. The following applies: selected Ewing's sarcoma, SCLC cell lines and tumor cell lines with homozygous inactivation of ATM; cited from earlier work.
The test system of the next data set is normal human cells. The following applies: cited from earlier work.

Structures are written as SMILES.

Turning to `Cc1ccc(S(=O)(=O)O)cc1.NC(=O)c1cccc2cn(-c3ccc([C@@H]4CCCNC4)cc3)nc12` [Niraparib, (3S)-3-[4-{7-(aminocarbonyl)-2H-indazol-2-yl}phenyl]piperidine], in data set [1], the cytotoxicity entry was “selectively cytotoxic”. Besides, the “activity on normal human cells” value in the data set with normal human cells is recorded as “weak activity”.
